The stoichiometry N is the number of molecules, sites or subunits per partner or assembly.

This test deals with T1, IRF3, endogenous (human (endogenous in HepG2)), Q14653.
T1 chain: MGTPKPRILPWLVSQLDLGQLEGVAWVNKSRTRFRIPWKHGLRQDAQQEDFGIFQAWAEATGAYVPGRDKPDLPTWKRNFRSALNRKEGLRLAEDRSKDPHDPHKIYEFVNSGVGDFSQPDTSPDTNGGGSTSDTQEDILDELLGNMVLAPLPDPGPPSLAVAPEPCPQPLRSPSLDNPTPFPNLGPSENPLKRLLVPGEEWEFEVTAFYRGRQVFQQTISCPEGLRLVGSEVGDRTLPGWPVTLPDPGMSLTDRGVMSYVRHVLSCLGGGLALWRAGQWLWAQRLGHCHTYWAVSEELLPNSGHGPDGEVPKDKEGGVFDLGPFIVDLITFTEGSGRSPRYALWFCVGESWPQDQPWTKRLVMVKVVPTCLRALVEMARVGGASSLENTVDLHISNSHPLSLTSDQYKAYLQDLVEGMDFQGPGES
The test is described as follows: native gel or EMSA; 7.5% native PAGE with 0.5% sodium deoxycholate in the cathode buffer, lysates (0.5% IGEPAL CA-630) of control KO HepG2 cells transfected with poly(I:C), immunoblot for IRF3. The note with it: remark: other sources report otherwise. A general note: A gel shift assay detects complexes by their altered migration in electrophoresis.

B1: IRF3, endogenous, Q14653 1-427 (natural protein)
chain: T1 chain
On to B1, for which the stoichiometry N was 2.
